Data taken from US9938273B2 (Plexxikon Inc., priority 2015, dated 2018).

By UniProt entry, the sequences of proteins in these tests, tags left out. Where a name states a change or a piece, a line headed by the entry shows the natural chain unless it says otherwise. Residues count along the entry.
UniProt P10721, 26-976 limits assumed: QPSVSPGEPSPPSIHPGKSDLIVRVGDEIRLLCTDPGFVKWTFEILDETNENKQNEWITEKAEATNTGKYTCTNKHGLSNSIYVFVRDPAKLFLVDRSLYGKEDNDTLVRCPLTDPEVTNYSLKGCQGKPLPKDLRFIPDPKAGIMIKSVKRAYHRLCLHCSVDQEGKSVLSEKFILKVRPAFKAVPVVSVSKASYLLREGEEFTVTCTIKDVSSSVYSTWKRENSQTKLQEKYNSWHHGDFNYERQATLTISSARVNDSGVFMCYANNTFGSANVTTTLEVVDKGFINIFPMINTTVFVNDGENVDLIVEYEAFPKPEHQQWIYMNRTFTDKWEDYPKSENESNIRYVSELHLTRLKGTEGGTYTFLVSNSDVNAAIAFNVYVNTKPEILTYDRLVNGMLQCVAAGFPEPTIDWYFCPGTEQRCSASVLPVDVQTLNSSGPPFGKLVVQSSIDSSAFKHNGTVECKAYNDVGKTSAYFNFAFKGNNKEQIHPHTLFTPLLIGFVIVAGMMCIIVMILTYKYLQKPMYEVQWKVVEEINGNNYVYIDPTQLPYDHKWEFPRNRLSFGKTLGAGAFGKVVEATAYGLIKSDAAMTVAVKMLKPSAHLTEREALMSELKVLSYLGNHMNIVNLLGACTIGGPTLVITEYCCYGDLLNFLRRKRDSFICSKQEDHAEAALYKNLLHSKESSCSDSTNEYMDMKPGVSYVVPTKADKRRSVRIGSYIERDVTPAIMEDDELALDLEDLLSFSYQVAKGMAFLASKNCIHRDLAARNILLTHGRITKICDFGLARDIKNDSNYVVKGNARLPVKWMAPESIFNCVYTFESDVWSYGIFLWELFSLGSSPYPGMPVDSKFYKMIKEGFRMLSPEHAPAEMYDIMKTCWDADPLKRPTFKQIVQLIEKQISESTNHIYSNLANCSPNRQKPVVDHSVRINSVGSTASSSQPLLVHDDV
UniProt P36888, whole entry D835Y: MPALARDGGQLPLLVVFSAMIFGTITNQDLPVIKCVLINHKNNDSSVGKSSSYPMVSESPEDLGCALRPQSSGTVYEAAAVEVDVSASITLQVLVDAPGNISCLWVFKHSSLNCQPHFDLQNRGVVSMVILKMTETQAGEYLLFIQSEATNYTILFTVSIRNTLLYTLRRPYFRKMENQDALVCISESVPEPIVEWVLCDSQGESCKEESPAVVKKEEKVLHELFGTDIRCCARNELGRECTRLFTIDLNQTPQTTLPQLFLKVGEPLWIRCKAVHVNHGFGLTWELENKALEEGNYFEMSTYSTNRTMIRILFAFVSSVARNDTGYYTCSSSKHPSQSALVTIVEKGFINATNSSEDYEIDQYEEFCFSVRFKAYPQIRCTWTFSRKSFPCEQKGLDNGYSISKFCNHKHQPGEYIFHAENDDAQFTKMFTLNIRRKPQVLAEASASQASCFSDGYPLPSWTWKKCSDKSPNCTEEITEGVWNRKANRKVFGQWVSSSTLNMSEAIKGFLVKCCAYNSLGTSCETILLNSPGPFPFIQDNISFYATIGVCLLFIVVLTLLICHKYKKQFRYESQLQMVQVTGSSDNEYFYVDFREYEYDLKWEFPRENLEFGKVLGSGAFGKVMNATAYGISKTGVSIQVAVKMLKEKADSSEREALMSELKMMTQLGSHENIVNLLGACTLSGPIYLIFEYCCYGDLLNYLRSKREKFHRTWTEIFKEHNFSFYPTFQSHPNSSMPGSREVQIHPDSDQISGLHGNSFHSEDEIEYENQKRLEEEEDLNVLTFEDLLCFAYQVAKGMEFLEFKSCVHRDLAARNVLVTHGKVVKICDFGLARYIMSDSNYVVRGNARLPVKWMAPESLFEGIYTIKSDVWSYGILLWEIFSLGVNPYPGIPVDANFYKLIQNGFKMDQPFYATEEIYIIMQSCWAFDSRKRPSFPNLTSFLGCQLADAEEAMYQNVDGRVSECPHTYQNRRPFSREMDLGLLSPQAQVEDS
UniProt P36888, 27-993 D835Y limits assumed: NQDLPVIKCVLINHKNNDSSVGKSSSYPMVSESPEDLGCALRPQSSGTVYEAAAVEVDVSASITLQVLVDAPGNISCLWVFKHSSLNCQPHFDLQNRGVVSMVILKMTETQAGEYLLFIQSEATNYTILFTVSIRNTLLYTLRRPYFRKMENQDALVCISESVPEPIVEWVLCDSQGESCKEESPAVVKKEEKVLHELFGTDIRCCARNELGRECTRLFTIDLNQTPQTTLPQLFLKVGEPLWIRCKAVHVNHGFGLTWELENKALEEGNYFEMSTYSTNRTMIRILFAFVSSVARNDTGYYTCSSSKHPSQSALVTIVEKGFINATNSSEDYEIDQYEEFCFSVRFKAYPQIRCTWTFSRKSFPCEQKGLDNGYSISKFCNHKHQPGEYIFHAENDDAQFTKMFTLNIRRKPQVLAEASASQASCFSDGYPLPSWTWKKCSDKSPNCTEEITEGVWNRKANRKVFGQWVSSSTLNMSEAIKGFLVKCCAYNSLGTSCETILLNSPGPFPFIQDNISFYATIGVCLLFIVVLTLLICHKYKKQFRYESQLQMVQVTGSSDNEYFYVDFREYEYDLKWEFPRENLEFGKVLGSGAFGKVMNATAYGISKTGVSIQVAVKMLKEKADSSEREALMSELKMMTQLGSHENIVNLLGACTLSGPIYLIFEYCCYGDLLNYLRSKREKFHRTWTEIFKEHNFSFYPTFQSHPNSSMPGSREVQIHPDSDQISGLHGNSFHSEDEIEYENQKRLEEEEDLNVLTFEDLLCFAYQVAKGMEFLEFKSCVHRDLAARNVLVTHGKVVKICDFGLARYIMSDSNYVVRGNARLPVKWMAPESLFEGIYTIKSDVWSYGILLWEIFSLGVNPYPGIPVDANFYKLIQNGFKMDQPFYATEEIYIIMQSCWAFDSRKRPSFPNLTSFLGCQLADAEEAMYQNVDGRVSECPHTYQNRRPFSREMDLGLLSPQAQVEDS
UniProt P36888, whole entry, stated change not applied: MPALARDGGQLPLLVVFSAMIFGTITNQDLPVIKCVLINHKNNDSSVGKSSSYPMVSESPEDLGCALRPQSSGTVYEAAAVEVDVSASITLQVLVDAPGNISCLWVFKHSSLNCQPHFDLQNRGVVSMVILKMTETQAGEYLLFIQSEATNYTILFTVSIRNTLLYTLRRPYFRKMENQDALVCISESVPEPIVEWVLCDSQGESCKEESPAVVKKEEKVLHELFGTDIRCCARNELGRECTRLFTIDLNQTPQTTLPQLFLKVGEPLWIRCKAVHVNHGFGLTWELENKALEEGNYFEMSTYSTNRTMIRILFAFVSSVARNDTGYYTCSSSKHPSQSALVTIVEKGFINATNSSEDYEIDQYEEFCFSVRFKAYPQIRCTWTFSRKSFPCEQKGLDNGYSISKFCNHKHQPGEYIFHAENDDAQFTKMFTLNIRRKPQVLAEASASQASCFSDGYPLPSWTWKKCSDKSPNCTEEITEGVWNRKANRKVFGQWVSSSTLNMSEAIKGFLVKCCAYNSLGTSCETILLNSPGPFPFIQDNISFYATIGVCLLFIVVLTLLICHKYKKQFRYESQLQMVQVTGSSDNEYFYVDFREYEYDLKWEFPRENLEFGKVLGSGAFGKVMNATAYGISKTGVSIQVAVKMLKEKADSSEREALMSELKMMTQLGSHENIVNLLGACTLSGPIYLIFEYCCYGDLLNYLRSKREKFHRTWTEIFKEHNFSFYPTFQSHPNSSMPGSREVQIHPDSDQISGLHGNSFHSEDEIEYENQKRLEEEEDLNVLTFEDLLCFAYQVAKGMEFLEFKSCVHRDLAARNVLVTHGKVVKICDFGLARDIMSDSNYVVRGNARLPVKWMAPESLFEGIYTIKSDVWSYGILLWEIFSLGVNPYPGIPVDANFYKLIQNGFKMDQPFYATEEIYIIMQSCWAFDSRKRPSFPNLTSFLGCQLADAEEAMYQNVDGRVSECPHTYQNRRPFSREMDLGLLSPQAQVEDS

How the values were obtained:
c-KIT = c-KIT (Homo sapiens, UniProt P10721); test: AlphaScreen kinase assay with recombinant enzyme, c-KIT; conditions: read-out: KIT 100ATP 8pt GMean IC50
Procedure: (§1) In order to determine the effect of compounds on FLT3 catalytic activity, kinase assays using recombinant enzymes and AlphaScreen® technology have been established. The catalytic activity of c-kit activity was also measured to determine selectivity of the compounds. When the kinases are catalytically active, they phosphorylate a biotinylated peptide substrate on tyrosine residues. Using AlphaScreen® technology, the ability of the compounds to affect the catalytic activity of the kinases can be measured quantitatively. The peptide substrate is immobilized by the AlphaScreen® Streptavidin Donor beads and, upon phosphorylation by a tyrosine kinase, can bind to AlphaScreen® Anti-Phosphotyrosine (PY20) Acceptor beads. Upon excitation of these beads with laser light at 680 nm, singlet oxygen is produced. This singlet oxygen is rapidly quenched, unless the AlphaScreen® Anti-Phosphotyrosine (PY20) Acceptor beads are in close proximity, in which case a proximity signal can be measured at 580 nm. In the presence of catalytic activity, there is a very strong proximity signal. Selective kinase inhibitors affect a decrease in this proximity signal through a decrease in tyrosine phosphorylation of the peptide substrate.
(§2) The assay was performed as summarized below.
(§3) Poly (Glu4-Tyr) Peptide, biotin conjugate [Biotin-GG(EEEEY)10EE] (SEQ ID NO: 4) […]
(§4) Read plate on Wallac EnVision™ 2103 Multilabel Reader.

[1] = molecular target: BA/F3-FLT3-ITD + D835Y cells (Homo sapiens, UniProt P36888, D835Y, cells depend on it, form not given); test: Cell proliferation assay (CellTiter-Glo), engineered BA/F3 cells; conditions: read-out: BaF3_FLT3 ITD/D835Y 3d-Growth: IC50, BaF3 FLT3 ITD/D835Y cells
Description: (§5) The FLT3 inhibitors may be assessed using the MOLM-14, Acute Myeloid Leukemia cell line that endogenously expresses FLT3 ITD or derivatives of the human FLT3 AML cell line which acquired the D835Y (activation loop) of F691L (gatekeeper) mutation after selection in escalating doses of the FLT3 Inhibitor AC220. FLT3 inhibitors may also be assessed using cells that are engineered to express mutant FLT3. For engineered cells, murine Ba/F3 cells were transfected with full-length FLT3 ITD/D835Y mutations. The parental BA/F3 cells are dependent upon Interleukin-3 (IL-3) for survival, and introduction of the FLT3 constructs rendered these cells dependent upon FLT3 kinase activity when cultured in the absences of IL-3. […] This inhibition is measured as a function of compound concentration to asses IC50 values. […]
(§6) Cells were seeded at 1×10^4 cells per well of a 96 well cell culture plate in 50 μl of cell culture medium. […] The plates were read on a Tecan M1000 using Luminescence protocol modified to read 0.1 s per well. The luminescence reading assesses the ATP content, which correlates directly with cell number such that the reading as a function of compound concentration was used to determine the IC50 value.

FLT3-ITD = FLT3-ITD (Homo sapiens, UniProt P36888); test: AlphaScreen kinase assay with recombinant enzyme, FLT3-ITD; conditions: read-out: FLT3_ITD 8pt: IC50
Procedure: as §1, §2, §3, §4

FLT3-D835Y = FLT3-D835Y (Homo sapiens, UniProt P36888, D835Y); test: AlphaScreen kinase assay with recombinant enzyme, FLT3-D835Y; conditions: read-out: FLT3 D835Y 8pt GMean IC50
Procedure: as §1, §2, §3, §4

[2] = tested on: MOLM-14 D835Y cells, FLT3 ITD and FLT3 D835Y; test: Cell proliferation assay (CellTiter-Glo), MOLM-14 D835Y; conditions: read-out: MOLM-14 D835Y 3d-Growth GMean IC50
Description: as §5, §6

NC1CCN(C(=O)c2cccc(-c3cnc4[nH]c(-c5ccccc5)cc4c3)c2)CC1
0.0001 to 10 µM: IC50 (c-KIT) | GI50 [1] | IC50 (FLT3-ITD) | IC50 (FLT3-D835Y)

N#CC1CCN(C(=O)c2cccc(-c3cnc4nc(-c5ccccc5)[nH]c4c3)n2)C1 (centres unmarked)
0.0001 to 10 µM: GI50 [1] | IC50 (FLT3-ITD) | IC50 [2] | IC50 (FLT3-D835Y)
